Experimental data published in ChEMBL document CHEMBL1811821, “Cystic fibrosis: a new target for 4-Imidazo[2,1-b]thiazole-1,4-dihydropyridines” (J Med Chem, 2011).

Species on record: Cavia porcellus
Experiment: Negative ionotropic activity in potassium depolarized guinea pig longitudinal smooth muscle assessed as inhibition of calcium-induced contraction at 5 X 10^-6 M
Format: functional

SMILES | inhibition
COC(=O)C1=C(C)NC(C)=C(C(=O)OC)C1c1c(C)nc2sc(Cl)cn12 | 96%
CCOC(=O)C1=C(C)NC(C)=C(C(=O)OCC)C1c1c(Cl)nc2sc(C)cn12 | 94%
COC(=O)C1=C(C)NC(C)=C(C(=O)OC)C1c1c(-c2ccccc2OC)nc2sccn12 | 88%
C=CCOC(=O)C1=C(C)NC(C)=C(C(=O)OCC=C)C1c1c(-c2cc(OC)ccc2OC)nc2sccn12 | 96%
COC(=O)C1=C(C)NC(C)=C(C(=O)OC)C1c1c(Cl)nc2scc(C)n12 | 97%
